Test system: C57BL/6 mouse primary bone marrow DC
Settings: high NaCl concentration

[Cl-].[Na+] [NaCl, sodium chloride]
DC maturation (48 h, FIG. 7): promote
expression of CD80 on DC surface (48 h, flow cytometry, FIG. 7): increase
expression of CD86 on DC surface (48 h, flow cytometry, FIG. 7): increase
expression of MHCII on DC surface (48 h, flow cytometry, FIG. 7): increase
DCs' phagocytosis of the antigen (FIG. 8): promote
release of inflammatory cytokine IL1b in mRNA and protein levels (FIG. 9): increase
release of inflammatory cytokine IL6 in mRNA and protein levels (FIG. 9): increase

— US10869922B2 (priority 2016, dated 2020)
